AlphaSeq binding of Ab-14 heavy chain variants to a spike HR2 peptide

Values reported by Li et al. 2023, doi:10.1038/s41467-023-39022-2 (FLAb copy).

Target: peptide PDVDLGDISGINAS, taken from heptad repeat 2 (HR2) of SARS-CoV-2 spike.

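Phage display of a naive human antibody library on the peptide gave the parent. These sequences belong to a second round, designed from the earlier measurements on random variants of the parent. Group labels follow the data file (Ctrl: baseline library sampled from a position-specific scoring matrix, with some repeated check sequences; Rand: our label for a block that the file lists under HC and that is probably the random mutants of the ten best first-round binders; En: ensemble of fine-tuned language models; GP: Gaussian process model; GPLM: also part of the Gaussian process libraries; HC: hill climbing; Gen: genetic algorithm; Gibbs: Gibbs sampling; a sequence that several methods proposed may carry one label only). AlphaSeq pools MATa yeast showing the antibodies with MATalpha yeast showing the peptide. Mating (16 h, 30 °C) was followed by selection of diploids and sequencing of their barcodes. The ratio of observed to expected reads was calibrated, replicate by replicate, on BCL2-family standards whose Kd was known from biolayer interferometry. Each pool was mated in six replicate cultures.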

Ab-14 is the parent antibody, in scFv form: VH, then a 15-residue (Gly4Ser)3 linker, then VL. The light chain is unchanged in all variants.
VH: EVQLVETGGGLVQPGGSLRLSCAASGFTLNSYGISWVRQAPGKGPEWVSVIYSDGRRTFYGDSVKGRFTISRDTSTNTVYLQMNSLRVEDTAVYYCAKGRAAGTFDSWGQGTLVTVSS
VL: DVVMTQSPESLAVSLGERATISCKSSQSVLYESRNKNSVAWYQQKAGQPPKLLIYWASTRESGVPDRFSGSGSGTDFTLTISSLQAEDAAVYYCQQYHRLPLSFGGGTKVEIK

Variants are written as CDR1, CDR2 and CDR3 of the heavy chain (limits as in the source). Parent: GFTLNSYGIS, VIYSDGRRTFYGDSVK, GRAAGTFDS. Numbers give log10(Kd / nM), so 0 is 1 nM and 3 is 1 µM. Smaller is tighter. Replicates are averaged; those with no signal do not enter the mean. Where no diploid with the target was found in that replicate, the entry reads "ND": below detection, most likely a poor binder, though not proof of it. The range of this assay differs from that of the first round, and the authors advise against merging the two. The parent sequence was in this pool as ten entries: three were never detected, three once, and four in most replicates, with averages from 0.34 to 2.37. As a blank, each scFv also met three strains without target: over all heavy chain designs, 1% of these pairings were detected, typically at 2.08 and seldom below 0.84. The authors' rule: three or more of the six replicates give a measured affinity, fewer mean a poor binder.

"log10 Kd, replicates",mean log10 Kd (nM),CDR-H1,CDR-H2,CDR-H3,group
ND ND ND ND ND ND,ND,GFTLNEYGIS,VMYSDGRRTFYGDEVK,GRATGTFDS,Ctrl
0.45 0.12 0.60 0.46 0.41 0.61,0.44,GFDLNSYGIS,VIYSDGRRTFYDDSVK,GQIAGTFDS,GPLM_HC
-0.03 0.35 -0.09 0.13 0.20 0.22,0.13,GFDLDEYGIS,VIYADGSRTAYSDSVK,GTNAGTFDV,En_Gen
-0.31 -0.52 -0.51 -0.58 -0.57 -0.47,-0.49,GFDLDEYGIS,VIYADGKRTYYADSVK,GNTAGTFDV,En_Gen
-0.18 0.00 -0.12 -0.42 -0.05 -0.34,-0.18,GFDLNSYGIS,VIYSDGRRTFYADSVK,GRMAGTFDS,GPLM_Gen
ND ND ND ND ND ND,ND,GFTLNDYGIS,VIYSDGRRTFYGDTVK,GNAALTFIS,Rand
0.16 0.05 -0.17 -0.45 -0.39 -0.14,-0.16,GFDLNSYGIS,VIYSDGKRTFYVDSVK,GRVAGTFDS,GP_Gibbs
0.35 0.38 0.12 -0.03 0.27 0.50,0.26,GFDLNSYGIS,VIYSDGRRTFYDDSVK,GRTAGTFDS,GP_Gen
ND ND ND 2.50 ND ND,2.50,GFNIEEFGIS,VIYADGKRSSVSDSVK,GQLGNAFDL,En_Gibbs
ND ND ND ND ND ND,ND,GFTLNDYGIS,VIYADGRRTFYGDSVK,GILTGTFDS,Ctrl
ND ND ND ND ND ND,ND,GESLDEYGIS,VIYADGQRVQYSNNVK,GLMFGVFDM,En_Gibbs
0.61 0.54 0.36 0.47 0.45 0.69,0.52,GFTLDSYGIS,VIYSDGRRTFYGDDVK,GRTAGTFDA,GP_Gibbs
1.20 ND ND 0.47 2.42 1.17,1.31,GFTLNQYGIS,VIYSDGRRTFYADSVK,GRAAGQFDS,GPLM_HC
2.27 0.79 1.48 1.22 0.18 2.60,1.43,GFHLNSYGIS,VIYSDGRRTFYIDSVK,GDAAGTFDS,GP_Gibbs
-0.04 -0.15 -0.19 -0.31 0.50 0.19,0.00,GFDLDEYGIS,VIYADGQRTAYADSVK,GNNAGTFDM,En_Gen
0.41 1.71 ND 3.50 1.01 1.08,1.54,GFSLNSYGIS,VIYSDGRRTFYSDSVK,GKQAGTFDS,GPLM_Gibbs
0.08 -0.67 -0.43 -0.79 -0.58 -0.37,-0.46,GFDLNEYGIS,VIYADGMRTFYADSVK,GQVAGTFDL,En_Gen
ND ND ND ND ND ND,ND,GFSLDNYGIS,VIYADGMRTAYANSVK,GEQDGFDTT,En_Gibbs
ND 3.11 4.68 ND ND ND,3.90,GFTINSYGIS,VIYSDGRRTAYGDSVK,EMAAGTFDS,Ctrl
ND 1.20 ND ND 0.51 ND,0.85,GFNLNSYGIS,VIYSDGRRTFYGDSVK,GRSAGTFDS,GPLM_Gen
0.79 0.48 1.03 0.33 0.50 0.68,0.64,GFELNSYGIS,VIYSDGRRTFYTDSVK,GKAAGTFDS,GPLM_Gibbs
ND ND ND ND ND ND,ND,GFWLNEYGIS,VIYSDGRRTFYGDSVK,GRHAGTFDT,GP_Gen
ND ND ND ND ND ND,ND,GFTLNQYGIS,VIYSDGERTFYGDSVK,GGAAGTFDS,Ctrl
1.37 1.61 ND 1.55 2.07 1.62,1.64,GFDLNSYGIS,VIYSDGRRTFYCDSVK,GEAAGTFDS,GPLM_Gen
0.07 0.18 0.48 0.14 -0.09 0.41,0.20,GFDLNDYGIS,VIYSDGRRTFYGDSVK,GTAAGTFDS,GP_HC
0.45 -0.03 -0.26 -0.48 -0.26 0.04,-0.09,GFSLNSYGIS,VIYSDGRRTFYGDSVK,GDVAGTFDS,GPLM_Gen
-0.24 -0.19 0.05 0.59 -0.31 -0.35,-0.07,GFNLNSYGIS,VIYSDGRRTFYADSVK,GKVAGTFDS,GPLM_Gibbs
ND ND ND ND ND ND,ND,GFSFNEYGIS,VIYADGKRQAYANTVK,GGKDAAFDI,En_Gibbs
0.37 0.35 0.81 1.09 0.52 1.38,0.75,GFELNSYGIS,VIYSDGIRTSYGDSVK,GRAAGTFDS,Ctrl
0.60 0.52 0.99 0.30 0.38 0.34,0.52,GFDLNEYGIS,VIYADGRRTAYTDSVK,GHNAGTFKL,En_HC
ND ND ND ND ND ND,ND,GFTLNQYGIS,VIYSDGSRTFYGDSVK,GRAAGTFDH,Ctrl
ND ND ND ND ND ND,ND,GFTLNSYGIS,VIYADGRRTFYGDSVK,GRAAGTNKT,GP_HC
ND 2.90 ND ND 2.71 ND,2.80,GFTLNQYGIS,VIYSDGRRTFYSDSCK,GRAAGFFDS,Rand

Extract of 2 entries:

CDR-H1,CDR-H2,CDR-H3,group,"log10 Kd, replicates",mean log10 Kd (nM)
GFELNSYGIS,VIYSDGIRTSYGDSVK,GRAAGTFDS,Ctrl,0.37 0.35 0.81 1.09 0.52 1.38,0.75
GFDLNEYGIS,VIYADGRRTAYTDSVK,GHNAGTFKL,En_HC,0.60 0.52 0.99 0.30 0.38 0.34,0.52